Columns and labels:
Assay in all cases: ELISA, titrated test article
[1] = target: cynomolgus monkey CD3 (ELISA antigen) (cynomolgus monkey)
[2] = target: human CD3 (ELISA antigen) (human)
[3] = target: rat CD3 (ELISA antigen) (rat)
[4] = target: mouse CD3 (ELISA antigen) (mouse)

Row | EC50 [1] | EC50 [2] | EC50 [3] | EC50 [4] | Substance
1 | 0.09 nM | 0.09 nM | 415 nM |  | PC-1-MMP cleaved (matrix metalloprotease cleaved PC-1, MMP9 treated) (bispecific antibody)
2 | 0.08 nM | 0.08 nM | 542 nM |  | PC-1-SP cleaved (serine protease cleaved PC-1, MTSP1 treated) (bispecific antibody)
3 |  |  | 20 nM | 767 nM | PC-1-TCE (non-masked EGFR x CD3 bispecific T cell engager) (bispecific antibody)

Reference: US20250297017A1
